Results reported in EP1214299B1, “MUSCARINIC ANTAGONISTS” (SCHERING CORPORATION, priority 1999, dated 2001).

Protein sequences, listed by entry. Tags and fused reporters are not part of them. Lines headed by an entry give the natural chain unless they say otherwise; changes in a name come on top.
UniProt P11229: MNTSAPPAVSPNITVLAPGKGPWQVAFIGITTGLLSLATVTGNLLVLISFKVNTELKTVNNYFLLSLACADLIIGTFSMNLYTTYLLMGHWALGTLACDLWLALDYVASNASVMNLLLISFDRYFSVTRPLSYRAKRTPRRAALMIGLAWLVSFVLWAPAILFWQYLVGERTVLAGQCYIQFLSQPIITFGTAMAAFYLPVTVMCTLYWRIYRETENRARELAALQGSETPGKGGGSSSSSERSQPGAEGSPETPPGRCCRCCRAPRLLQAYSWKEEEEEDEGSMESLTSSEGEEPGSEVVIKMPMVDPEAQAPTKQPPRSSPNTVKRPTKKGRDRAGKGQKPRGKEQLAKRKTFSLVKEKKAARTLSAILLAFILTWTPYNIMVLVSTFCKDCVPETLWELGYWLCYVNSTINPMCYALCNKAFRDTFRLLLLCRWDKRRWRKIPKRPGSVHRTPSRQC
UniProt P08173, whole entry: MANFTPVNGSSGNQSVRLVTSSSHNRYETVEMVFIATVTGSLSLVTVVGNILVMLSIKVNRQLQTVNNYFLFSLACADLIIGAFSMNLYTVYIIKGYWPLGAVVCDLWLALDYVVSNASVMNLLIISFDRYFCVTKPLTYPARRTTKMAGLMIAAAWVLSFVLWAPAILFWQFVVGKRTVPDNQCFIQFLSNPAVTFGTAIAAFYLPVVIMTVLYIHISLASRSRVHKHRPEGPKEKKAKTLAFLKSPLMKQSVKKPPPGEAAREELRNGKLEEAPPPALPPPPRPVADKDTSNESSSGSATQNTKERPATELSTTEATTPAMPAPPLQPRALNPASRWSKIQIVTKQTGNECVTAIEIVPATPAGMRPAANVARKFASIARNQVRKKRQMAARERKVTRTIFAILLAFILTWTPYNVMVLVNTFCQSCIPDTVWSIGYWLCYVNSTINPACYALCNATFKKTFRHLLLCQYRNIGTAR
UniProt P08172, whole entry: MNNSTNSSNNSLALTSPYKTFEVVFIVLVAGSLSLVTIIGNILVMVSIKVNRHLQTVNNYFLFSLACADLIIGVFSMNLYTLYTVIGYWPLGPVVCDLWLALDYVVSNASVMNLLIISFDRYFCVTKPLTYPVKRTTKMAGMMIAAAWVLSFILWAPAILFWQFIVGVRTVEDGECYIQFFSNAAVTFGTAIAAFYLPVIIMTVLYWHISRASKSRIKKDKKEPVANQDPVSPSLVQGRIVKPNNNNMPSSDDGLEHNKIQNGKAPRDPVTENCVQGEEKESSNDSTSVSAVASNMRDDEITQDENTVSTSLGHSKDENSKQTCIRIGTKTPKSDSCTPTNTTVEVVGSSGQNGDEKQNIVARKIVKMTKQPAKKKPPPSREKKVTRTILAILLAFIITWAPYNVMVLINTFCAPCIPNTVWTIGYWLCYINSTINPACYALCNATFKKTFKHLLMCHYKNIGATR
UniProt P20309, whole entry: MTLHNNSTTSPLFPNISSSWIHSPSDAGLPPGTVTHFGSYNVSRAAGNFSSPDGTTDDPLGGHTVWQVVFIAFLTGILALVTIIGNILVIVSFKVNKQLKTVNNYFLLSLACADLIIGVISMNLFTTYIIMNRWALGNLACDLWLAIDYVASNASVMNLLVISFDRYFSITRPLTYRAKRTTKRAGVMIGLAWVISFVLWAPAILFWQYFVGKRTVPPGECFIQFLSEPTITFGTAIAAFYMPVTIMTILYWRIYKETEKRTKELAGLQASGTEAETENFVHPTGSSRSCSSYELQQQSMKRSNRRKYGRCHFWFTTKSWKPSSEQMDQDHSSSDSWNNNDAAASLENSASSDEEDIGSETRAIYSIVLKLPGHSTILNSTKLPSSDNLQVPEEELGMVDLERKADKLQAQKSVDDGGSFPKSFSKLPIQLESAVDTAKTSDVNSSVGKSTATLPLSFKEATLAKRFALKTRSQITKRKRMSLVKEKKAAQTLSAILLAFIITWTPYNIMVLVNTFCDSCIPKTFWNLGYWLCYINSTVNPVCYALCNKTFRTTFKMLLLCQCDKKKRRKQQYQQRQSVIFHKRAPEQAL
UniProt P08912, whole entry: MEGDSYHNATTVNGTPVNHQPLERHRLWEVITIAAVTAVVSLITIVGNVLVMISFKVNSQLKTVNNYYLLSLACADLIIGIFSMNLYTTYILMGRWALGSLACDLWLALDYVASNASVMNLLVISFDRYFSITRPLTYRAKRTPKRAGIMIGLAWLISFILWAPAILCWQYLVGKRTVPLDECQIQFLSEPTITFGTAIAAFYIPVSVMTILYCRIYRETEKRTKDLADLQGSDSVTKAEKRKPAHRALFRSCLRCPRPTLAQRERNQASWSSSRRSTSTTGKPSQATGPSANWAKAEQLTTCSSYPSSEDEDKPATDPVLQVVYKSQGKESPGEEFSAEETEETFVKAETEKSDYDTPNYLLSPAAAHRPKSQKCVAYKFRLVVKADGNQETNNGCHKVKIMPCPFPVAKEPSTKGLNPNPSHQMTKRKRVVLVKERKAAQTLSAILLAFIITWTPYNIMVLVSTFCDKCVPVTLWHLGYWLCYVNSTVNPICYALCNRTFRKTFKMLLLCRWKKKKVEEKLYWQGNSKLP

Experiments:
Assay in all cases: biochemical
[1] = molecular target: human m1 muscarinic receptor (Homo sapiens, UniProt P11229); type: binding
[2] = molecular target: human m4 muscarinic receptor (Homo sapiens, UniProt P08173); type: binding
[3] = molecular target: human m2 muscarinic receptor (Homo sapiens, UniProt P08172)
[4] = molecular target: human m3 muscarinic receptor (Homo sapiens, UniProt P20309)
m5 = m5 (Homo sapiens, UniProt P08912)

COc1ccc(S(=O)(=O)c2ccc(C3(C4CCN(C5CCN(C(=O)c6cccc(F)c6N)CC5)CC4)OCCO3)cc2)cc1 [Example 2F]
pKi [1]: 6.84 | pKi [2]: 8.01 | pKi [3]: 9.29 | pKi [4]: 7.25 | pKi (m5): 7.77

COc1ccc(S(=O)(=O)c2ccc(C3(C4CCN(C5CCN(C(=O)c6cccc(C)c6N)CC5)CC4)OCCO3)cc2)cc1 [Example 2]
pKi [1]: 6.62 | pKi [2]: 7.87 | pKi [3]: 9.41 | pKi [4]: 7.01 | pKi (m5): 7.65

Nc1cc(F)ccc1C(=O)N1CCC(N2CCC(C3(c4ccc(S(=O)(=O)c5cccc(Cl)c5)cc4)OCCO3)CC2)CC1 [Example 3E]
pKi [1]: 7.37 | pKi [2]: 8.27 | pKi [3]: 9.94 | pKi [4]: 7.79 | pKi (m5): 8.40

Nc1ccccc1C(=O)N1CCC(N2CCC(Cc3ccc(S(=O)(=O)c4cccc(Cl)c4)cc3)CC2)CC1 [Example 7A]
pKi [4]: 6.21 | pKi (m5): 7.38

pKi: −log10 of the molar value.
